The values below are quoted from earlier work in publication PMC6271944, “In Vitro Inhibitory Effects of Scutellarin on Six Human/Rat Cytochrome P450 Enzymes and P-glycoprotein” (Molecules, 2014).

For this data set the following is noted: acute and subacute toxicity studies; cited from earlier work.

For `O=C(O)[C@H]1O[C@@H](Oc2cc3oc(-c4ccc(O)cc4)cc(=O)c3c(O)c2O)[C@H](O)[C@@H](O)[C@@H]1O` [scutellarin, Scutellarin], the “margin of safety for therapeutic use” value is “sufficient margin of safety”.
